This data set is described as follows: In vitro penetration across isolated human skin in modified Franz cells. The protocol: Penetration rates of HPPs and their parent drugs through human skin were measured in vitro by modified Franz cells. A Franz cell had two chambers, the top sample chamber and the bottom receiving chamber. The human skin tissue (360-400 μm thick) that separated the top and the receiving chambers was isolated from the anterior or posterior thigh areas.
A test compound (2 mL, 10% in 0.2 M phosphate buffer, pH 7.4) was added to the sample chamber of a Franz cell. The receiving chamber contained 10 ml of 0.2 M phosphate buffer which was stirred at 600 rpm. The amount of the tested compound penetrating the skin was determined by high-performance liquid chromatography (HPLC) method.

Turning to “6-(5-methyl-3-phenyl-2-isoxazoline-4-carboxamido)penicillinic acid 4-piperidineethyl ester hydrochloride”, where the note is “pH 7.4”, the “In vitro Penetration Rate (apparent flux), HPPs” value amounted to 0.77 ± 0.08 mg/cm^2/h.
“(2S,5R)-3,3-dimethyl-7-oxo-4-thia-1-azabicyclo[3.2.0]heptane-2-carboxylic acid 4,4-dioxide N,N-diethylaminoethyl ester•HCl salt [sulbactam-DEE]”: the “In vitro Penetration Rate (apparent flux), HPPs of beta-lactamases inhibitors” value (Table 1b, isolated human skin, Franz cells, 10% in 0.2 M phosphate buffer pH 7.4, n=5) is 0.35 ± 0.03 mg/cm^2/h.
Regarding penicillin V [reference compound], the apparent flux value result is “less than 1 μg/cm^2/h”. The “In vitro Penetration Rate (apparent flux), Parent compounds” value (pH 7.4) is recorded as <0.001 mg/cm^2/h.

The values above are taken from patent publication US11485744B2, “High penetration prodrug compositions of antimicrobials and antimicrobial-related compounds” (priority 2009, dated 2022).
